Data on 25 molecules can be found in patent publication US8772480B2, “Inhibitors of PI3 kinase and/or mTOR” (priority 2009, dated 2014).

The assay has as its target mammalian target of rapamycin (mTOR) (Homo sapiens (Human), UniProt P42345). Particulars: read-out: mTOR IC50.
In the case of `CCNc1cnc(Nc2ccc(OC)nc2)c(-c2nc(C)nc3[nH]cnc23)c1` [Example 94, N5-ethyl-N2-(6-methoxypyridin-3-yl)-3-(2-methyl-9H-purin-6-yl)pyridine-2,5-diamine], the IC50 was determined as 4.14 µM.
Take `Cc1nc(N)nc(-c2cc(C(C)N3CCOCC3)cnc2Nc2cnc(Cl)c(NS(C)(=O)=O)c2)n1` (stereo not shown) [Example 369, N-(5-(3-(4-Amino-6-Methyl-1,3,5-Triazin-2-yl)-5-(1-Morpholinoethyl)Pyridin-2-Ylamino)-2-Chloropyridin-3-yl)Methanesulfonamide]: the IC50 was 0.472 µM.
On to `COc1ncc(Nc2ncc([C@H](C)N3CCOCC3)cc2-c2nc(C)nc(N)n2)cc1F` (single isomer, unassigned) [Example 292], for which the IC50 amounted to 4.01 µM.
Then `COc1ncc(Nc2ncc([C@@H](C)N3CCN(S(C)(=O)=O)CC3)cc2-c2nc(C)nc3[nH]cnc23)cc1F` [Example 297, (R)—N-(5-Fluoro-6-Methoxypyridin-3-yl)-3-(2-Methyl-9H-Purin-6-yl)-5-(1-(4-(Methylsulfonyl)Piperazin-1-yl)Ethyl)Pyridin-2-Amine], with above 10 µM; and `COc1ncc(Nc2ncc(CN3CCOCC3)cc2-c2nc(C)nc(N)n2)cc1F` [Example 130, 4-(2-(5-fluoro-6-methoxypyridin-3-ylamino)-5-(morpholinomethyl)pyridin-3-yl)-6-methyl-1,3,5-triazin-2-amine], with above 10 µM.
The same measure for `COc1ccc(Nc2ncncc2-c2nc(C)nc(N)n2)cn1` [Example 117, 4-(4-(6-methoxypyridin-3-ylamino)pyrimidin-5-yl)-6-methyl-1,3,5-triazin-2-amine]: above 10 µM; for `CC(=O)Nc1ccc(Nc2ncc(CN3CCN(S(C)(=O)=O)CC3)cc2-c2nc(C)nc(N)n2)cn1` [Example 196, N-(5-(3-(4-Amino-6-Methyl-1,3,5-Triazin-2-yl)-5-((4-(Methylsulfonyl)Piperazin-1-yl)Methyl)Pyridin-2-Ylamino)Pyridin-2-yl)Acetamide]: 1.11 µM; for `COc1ncc(Nc2nc(-c3cccnc3)ccc2-c2nc(C)nc(N)n2)cc1F` [Example 255, 5-(4-Amino-6-Methyl-1,3,5-Triazin-2-yl)-N-(5-Fluoro-6-Methoxypyridin-3-yl)-2,3′-Bipyridin-6-Amine]: above 10 µM.
In the case of `COc1cc(Nc2ncc(C(C)(C)O)cc2-c2nc(C)nc(N)n2)cnc1OC` [Example 350, 2-(5-(4-Amino-6-Methyl-1,3,5-Triazin-2-yl)-6-(5,6-Dimethoxypyridin-3-Ylamino)Pyridin-3-yl)Propan-2-ol], the half-maximal inhibitory concentration (IC50) stood at 5.49 µM.
Then `COc1cncc(Nc2ncccc2-c2nc(C)nc3[nH]cnc23)c1` [Example 183, N-(5-Methoxypyridin-3-yl)-3-(2-Methyl-9H-Purin-6-yl)Pyridin-2-Amine], with above 10 µM; and `Cc1cncc(Nc2ncccc2-c2nc(C)nc(N)n2)c1` [Example 174, 4-Methyl-6-(2-(5-Methylpyridin-3-Ylamino)Pyridin-3-yl)-1,3,5-Triazin-2-Amine], with above 10 µM; and `COc1ccc(Nc2ncc(CNC(C)C)cc2-c2nc(C)nc3[nH]cnc23)cn1` [Example 135, 5-((isopropylamino)methyl)-N-(6-methoxypyridin-3-yl)-3-(2-methyl-9H-purin-6-yl)pyridin-2-amine], with above 10 µM.
Then `COc1ccc(Nc2ncc(CN3CC(O)C3)cc2-c2nc(C)nc(N)n2)cn1` [Example 229, 1-((5-(4-Amino-6-Methyl-1,3,5-Triazin-2-yl)-6-(6-Methoxypyridin-3-Ylamino)Pyridin-3-yl)Methyl)Azetidin-3-ol], with above 10 µM.
Then `Cc1nc(N)nc(-c2cc([C@@H](C)N3CCN(S(C)(=O)=O)C[C@@H]3C)cnc2Nc2ccc3scnc3c2)n1` [Example 293, N-(3-(4-Amino-6-Methyl-1,3,5-Triazin-2-yl)-5-((R)-1-((S)-2-Methyl-4-(Methylsulfonyl)Piperazin-1-yl)Ethyl)Pyridin-2-yl)Benzo[D]Thiazol-5-Amine], with 0.252 µM; and `COc1ccc(Nc2ncc(C(O)c3cc(Br)ccc3S(=O)(=O)N(C)C)cc2-c2nc(C)nc(N)n2)cn1` (stereo not shown) [Example 235, 2-((5-(4-Amino-6-Methyl-1,3,5-Triazin-2-yl)-6-(6-Methoxypyridin-3-Ylamino)Pyridin-3-yl)(Hydroxy)Methyl)-4-Bromo-N,N-Dimethylbenzenesulfonamide], with 0.726 µM.
As for `COc1ccc(Nc2ncc(CN3CCN(S(C)(=O)=O)C[C@H]3C)cc2-c2nc(C)nc(N)n2)cn1` [Example 158, (R)-4-(2-(6-Methoxypyridin-3-Ylamino)-5-((2-Methyl-4-(Methylsulfonyl)Piperazin-1-yl)Methyl)Pyridin-3-yl)-6-Methyl-1,3,5-Triazin-2-Amine], the IC50 was determined as 3.28 µM.
Then `COCCOc1ccc(NC(=O)Nc2ccc(Nc3ncc(Cl)cc3-c3nc(C)nc(N)n3)cn2)cc1` [Example 195, 1-(5-(3-(4-Amino-6-Methyl-1,3,5-Triazin-2-yl)-5-Chloropyridin-2-Ylamino)Pyridin-2-yl)-3-(4-(2-Methoxyethoxy)Phenyl)Urea], with above 10 µM; and `Cc1nc(N)nc(-c2cc(CN3CCN(S(C)(=O)=O)CC3)cnc2Nc2cncnc2)n1` [Example 38, 4-Methyl-6-(5-((4-(Methylsulfonyl)Piperazin-1-yl)Methyl)-2-(Pyrimidin-5-Ylamino)Pyridin-3-yl)-1,3,5-Triazin-2-Amine], with above 10 µM.
Then `Nc1ccc(Nc2ncccc2-c2ncnc3[nH]cnc23)cn1` [Example 17, N3-(3-(9H-Purin-6-yl)Pyridin-2-yl)Pyridine-3,6-Diamine], with 17.5 µM; and `COc1ncc(Nc2ncc(C3(O)CC3)cc2-c2nc(C)nc(N)n2)cc1F` [Example 298, 1-(5-(4-Amino-6-Methyl-1,3,5-Triazin-2-yl)-6-(5-Fluoro-6-Methoxypyridin-3-Ylamino)Pyridin-3-yl)Cyclopropanol], with 0.242 µM.
Then `COc1ncc(Nc2ncc(C(C)(C)C(=O)O)cc2-c2nc(C)nc(N)n2)cc1F` [Example 346, 2-(5-(4-Amino-6-Methyl-1,3,5-Triazin-2-yl)-6-(5-Fluoro-6-Methoxypyridin-3-Ylamino)Pyridin-3-yl)-2-Methylpropanoic Acid], with above 10 µM; and `COc1ccc(Nc2nc(NC3CCCC3)ncc2-c2nc(C)nc(N)n2)cn1` [Example 126, 5-(4-amino-6-methyl-1,3,5-triazin-2-yl)-N2-cyclopentyl-N4-(6-methoxypyridin-3-yl)pyrimidine-2,4-diamine], with above 10 µM; and `Cc1nc(-c2cnccc2Nc2cccc3[nH]ncc23)c2nc[nH]c2n1` [Example 110, N-(3-(2-methyl-9H-purin-6-yl)pyridin-4-yl)-1H-indazol-4-amine], with above 10 µM.
With `COc1ccc(Nc2ncc(CN3CCN(C)CC3)cc2-c2nc(C)nc(N)n2)cn1` [Example 157, 4-(2-(6-Methoxypyridin-3-Ylamino)-5-((4-Methylpiperazin-1-yl)Methyl)Pyridin-3-yl)-6-Methyl-1,3,5-Triazin-2-Amine], the IC50 is above 10 µM.
Take `COc1cc(Nc2ncc(C(C)(C)O)cc2-c2nc(C)nc(N)n2)cnc1Cl` [Example 342, 2-(5-(4-Amino-6-Methyl-1,3,5-Triazin-2-yl)-6-(6-Chloro-5-Methoxypyridin-3-Ylamino)Pyridin-3-yl)Propan-2-ol]: the IC50 amounted to 0.474 µM.
